Laboratory results reported in patent publication US6545000B1, “[1,2,4]triazolo[1,5-c]pyrimidine derivatives” (Kyowa Hakko Kogyo Co., Ltd., priority 1998, dated 2003).

System: CGS 21680-induced catalepsy
Experiment: Activity on CGS 21680-induced catalepsy
Type: in vivo
Conditions: Mus musculus, po, 1 h, read-out: Remission ratio (%)

CC(C)(O)CCN1CCN(c2cc3nc(-c4ccco4)nn3c(N)n2)CC1 [Compound 7, 5-Amino-2-(2-furyl)-7-(4-(3-hydroxy-3-methylbutyl)piperazinyl)[1,2,4]triazolo[1,5-c]pyrimidine]
inhibition in vivo at 10 mg/kg: 84%
